This note sets out measurements from patent US20230128137A1, “BENZO FIVE-MEMBERED CYCLIC COMPOUND” (MEDSHINE DISCOVERY INC., priority 2020, published 2023).

The data set in a line: in vitro. The conditions noted are these: human, human liver microsomes.

For orientation: CLint scaled means the rate of metabolic loss divided by the concentration. Read a low CLint scaled as greater metabolic stability. Take `O=C(O)Cc1ccccc1Nc1c(Cl)cccc1Cl` [Diclofenac]: the CLint scaled at 1 µM was 309 mL/min/kg.
